# According to patent US9550775B2, “Substituted triazolopyridines and methods of use thereof” (GENENTECH, INC., priority 2013, dated 2017):
# Sequences of proteins named here, by UniProt entry; tags and fusion partners are left off. A line that says so, or that is headed by a name, gives the form on record, which may keep a tag or linker.
# UniProt Q15858, other isoform, or with tags, fused parts or gaps: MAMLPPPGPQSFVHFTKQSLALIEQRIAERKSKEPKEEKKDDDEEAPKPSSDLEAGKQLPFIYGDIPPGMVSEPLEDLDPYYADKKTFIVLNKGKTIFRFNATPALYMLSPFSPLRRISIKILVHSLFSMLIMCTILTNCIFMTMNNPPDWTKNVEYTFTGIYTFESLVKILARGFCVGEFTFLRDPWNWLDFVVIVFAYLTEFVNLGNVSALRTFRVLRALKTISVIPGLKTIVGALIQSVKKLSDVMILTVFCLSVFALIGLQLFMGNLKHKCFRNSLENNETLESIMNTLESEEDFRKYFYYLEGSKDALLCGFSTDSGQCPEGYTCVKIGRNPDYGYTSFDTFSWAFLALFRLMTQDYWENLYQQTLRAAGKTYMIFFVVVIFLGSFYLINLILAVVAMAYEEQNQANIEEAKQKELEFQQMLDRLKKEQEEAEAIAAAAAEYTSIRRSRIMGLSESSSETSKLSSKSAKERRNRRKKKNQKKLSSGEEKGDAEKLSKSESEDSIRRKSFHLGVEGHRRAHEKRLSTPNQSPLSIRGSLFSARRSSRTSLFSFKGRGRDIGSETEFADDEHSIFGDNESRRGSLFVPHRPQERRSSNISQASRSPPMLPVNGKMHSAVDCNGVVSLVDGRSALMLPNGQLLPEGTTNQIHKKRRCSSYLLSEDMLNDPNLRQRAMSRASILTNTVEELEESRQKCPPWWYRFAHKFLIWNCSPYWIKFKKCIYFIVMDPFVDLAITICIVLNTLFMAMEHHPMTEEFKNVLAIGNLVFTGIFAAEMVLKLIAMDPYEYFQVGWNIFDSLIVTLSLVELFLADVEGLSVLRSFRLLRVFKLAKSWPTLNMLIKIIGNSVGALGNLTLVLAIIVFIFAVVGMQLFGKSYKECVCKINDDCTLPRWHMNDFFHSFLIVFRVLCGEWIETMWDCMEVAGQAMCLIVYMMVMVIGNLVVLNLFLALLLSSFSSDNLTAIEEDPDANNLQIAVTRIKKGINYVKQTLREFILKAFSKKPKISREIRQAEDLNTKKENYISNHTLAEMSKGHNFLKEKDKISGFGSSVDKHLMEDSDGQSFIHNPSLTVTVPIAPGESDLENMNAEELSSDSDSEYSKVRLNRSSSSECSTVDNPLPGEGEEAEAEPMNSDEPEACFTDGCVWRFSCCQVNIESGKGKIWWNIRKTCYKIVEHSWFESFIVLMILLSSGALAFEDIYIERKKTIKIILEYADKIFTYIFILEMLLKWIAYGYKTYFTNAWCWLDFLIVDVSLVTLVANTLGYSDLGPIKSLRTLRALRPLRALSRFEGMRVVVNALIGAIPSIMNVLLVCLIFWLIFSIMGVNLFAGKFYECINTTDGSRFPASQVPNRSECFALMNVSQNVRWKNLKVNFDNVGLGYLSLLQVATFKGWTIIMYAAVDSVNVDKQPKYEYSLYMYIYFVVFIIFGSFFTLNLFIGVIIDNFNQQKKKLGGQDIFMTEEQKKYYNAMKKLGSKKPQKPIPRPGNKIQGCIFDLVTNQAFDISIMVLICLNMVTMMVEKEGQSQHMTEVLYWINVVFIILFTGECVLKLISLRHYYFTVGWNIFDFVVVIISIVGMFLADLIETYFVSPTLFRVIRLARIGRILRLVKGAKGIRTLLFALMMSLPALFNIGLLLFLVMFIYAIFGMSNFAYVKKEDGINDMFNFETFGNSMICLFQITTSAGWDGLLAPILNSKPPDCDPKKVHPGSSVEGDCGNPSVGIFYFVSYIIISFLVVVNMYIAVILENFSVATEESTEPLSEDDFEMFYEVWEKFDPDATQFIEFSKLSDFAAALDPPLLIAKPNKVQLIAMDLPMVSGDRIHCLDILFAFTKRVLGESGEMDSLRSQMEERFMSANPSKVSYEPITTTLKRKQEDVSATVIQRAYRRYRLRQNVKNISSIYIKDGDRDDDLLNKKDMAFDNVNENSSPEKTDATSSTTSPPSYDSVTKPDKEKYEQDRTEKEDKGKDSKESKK
# Molecular target: hNav1.7 (Homo sapiens (Human), UniProt Q15858)
# Experiment: Tritiated sulfonamide competitive binding to membranes from cells expressing hNav1.7 and the β1 subunit;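 further: displacement of the tritiated ligand from recombinant cell membranes, read by liquid scintillation counting of filter-bound radioactivity, nonspecific binding defined with 1 µM unlabelled compound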
# Conditions: 100 pM [3H]compound, 18 h, room temperature; inactivated state of NaV1.7 membrane binding; read-out: NaV1.7 Ligand Binding Assay (IC50)
row,IC50 [nM],Structure (SMILES)
1,206,O=S(=O)(Nc1nnc2cc(OCC34CC5CC(CC(C5)C3)C4)c(Br)cn12)N1CCOCC1 [Example 9]
2,637,"COc1ncccc1-c1cn2c(NS(C)(=O)=O)nnc2cc1OCC12CC3CC(CC(C3)C1)C2 [Example 10, N-(7-(adamantan-1-ylmethoxy)-6-(2-methoxypyridin-3-yl)-[1,2,4]-triazolo[4,3-a]pyridin-3-yl)methanesulfonamide]"
3,544,"CS(=O)(=O)Nc1nnc2cc(OCC34CC5CC(CC(C5)C3)C4)c(C3=CCCC3)cn12 [Example 12, N-(7-(adamantan-1-ylmethoxy)-6-(cyclopent-1-en-1-yl)-[1,2,4]triazolo[4,3-a]pyridin-3-yl)methanesulfonamide]"
4,3.39,"CC1(C)[C@H]2CC[C@H](COc3cc4nnc(NS(=O)(=O)C5CC5)n4cc3C3CC3)[C@@H]1C2 [Example 29, N-(6-cyclopropyl-7-(((1S,2S,5S)-6,6-dimethylbicyclo[3.1.1]-heptan-2-yl)methoxy)-[1,2,4]triazolo[4,3-a]pyridin-3-yl)cyclopropanesulfonamide]"
5,133,COc1ncccc1-c1cn2c(NS(C)(=O)=O)nnc2cc1OC[C@H]1CC[C@H](C)CC1 [Example 34]
6,7.33,O=S(=O)(Nc1nnc2cc(COc3cc(Cl)cc(OC(F)(F)F)c3)c(C3CC3)cn12)N1CCC1 [Example 44]
7,7.15,"CS(=O)(=O)Nc1nnc2cc(COc3ccc(Cl)c(C(F)(F)F)c3)c(C3CC3)cn12 [Example 45, N-(7-((4-chloro-3-(trifluoromethyl)phenoxy)methyl)-6-cyclopropyl-[1,2,4]triazolo[4,3-a]pyridin-3-yl)methanesulfonamide]"
8,10.8,"O=S(=O)(Nc1nnc2cc(COc3ccc(Cl)c(C(F)(F)F)c3)c(C3CC3)cn12)C1CC1 [Example 46, N-(7-((4-chloro-3-(trifluoromethyl)phenoxy)methyl)-6-cyclopropyl-[1,2,4]triazolo[4,3-a]pyridin-3-yl)cyclopropanesulfonamide]"
9,210,"O=S(=O)(Nc1nnc2cc(OCC34CC5CC(CC(C5)C3)C4)c(Br)cn12)N1CCOCC1 [Example 64, N-(7-((3r,5r,7r)-adamantan-1-ylmethoxy)-6-bromo-[1,2,4]triazolo-[4,3-a]pyridin-3-yl)morpholine-4-sulfonamide]"
10,640,"COc1ncccc1-c1cn2c(NS(C)(=O)=O)nnc2cc1OCC12CC3CC(CC(C3)C1)C2 [Example 65, N-(7-((3r,5r,7r)-adamantan-1-ylmethoxy)-6-(2-methoxypyridin-3-yl)-[1,2,4]triazolo[4,3-a]pyridin-3-yl)methanesulfonamide]"
11,540,CS(=O)(=O)Nc1nnc2cc(OCC34CC5CC(CC(C5)C3)C4)c(C3=CCCC3)cn12 [Example 67]
12,4,O=S(=O)(Nc1nnc2cc(OCC3CC4C5CCC(C5)C4C3)c(C3CC3)cn12)C1CC1 (centres unmarked) [Example 81]
13,3,CC1(C)[C@H]2CC[C@H](COc3cc4nnc(NS(=O)(=O)C5CC5)n4cc3C3CC3)[C@@H]1C2 [Example 84]
14,130,COc1ncccc1-c1cn2c(NS(C)(=O)=O)nnc2cc1OC[C@H]1CC[C@H](C)CC1 [Example 89]
15,7,"O=S(=O)(Nc1nnc2cc(COc3cc(Cl)cc(OC(F)(F)F)c3)c(C3CC3)cn12)N1CCC1 [Example 99, N-(7-((3-chloro-5-(trifluoromethoxy)phenoxy)methyl)-6-cyclopropyl-[1,2,4]triazolo[4,3-a]pyridin-3-yl)azetidine-1-sulfonamide]"
16,7,"CS(=O)(=O)Nc1nnc2cc(COc3ccc(Cl)c(C(F)(F)F)c3)c(C3CC3)cn12 [Example 100, N-(7-((4-chloro-3-(trifluoromethyl)phenoxy)methyl)-6-cyclopropyl-[1,2,4]triazolo[4,3-a]pyridin-3-yl)methanesulfonamide]"
17,11,"O=S(=O)(Nc1nnc2cc(COc3ccc(Cl)c(C(F)(F)F)c3)c(C3CC3)cn12)C1CC1 [Example 101, N-(7-((4-chloro-3-(trifluoromethyl)phenoxy)methyl)-6-cyclopropyl-[1,2,4]triazolo[4,3-a]pyridin-3-yl)cyclopropanesulfonamide]"
